# AlphaSeq binding of Ab-91 heavy chain variants to a spike HR2 peptide

All variants were tested on one target, the spike HR2 peptide PDVDLGDISGINAS (SARS-CoV-2).

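AAYL51 was designed without a model: most single CDR substitutions and a random sample of double and triple ones. In AlphaSeq, yeast of one mating type display the scFv and yeast of the other type display the target. The frequency of each diploid, read from paired DNA barcodes, reflects how well the two displayed proteins bind. A regression on co-assayed BCL2-family reference pairs converts the normalised counts of each replicate to an apparent Kd. Mating was done three times.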

Parent scFv Ab-91: VL joined to VH by a (GGGGS)3 linker. Changes lie in the heavy chain CDRs alone.
VL: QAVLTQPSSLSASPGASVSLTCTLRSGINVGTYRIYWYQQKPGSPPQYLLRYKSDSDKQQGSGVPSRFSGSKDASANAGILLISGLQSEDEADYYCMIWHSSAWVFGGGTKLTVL
VH: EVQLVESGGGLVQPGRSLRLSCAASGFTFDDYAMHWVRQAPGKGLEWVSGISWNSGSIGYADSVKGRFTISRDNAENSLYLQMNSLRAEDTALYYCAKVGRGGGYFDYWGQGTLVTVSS

Changes read parent residue, position, new residue, counted from the first residue of the VH shown.
Each Kd is an estimate from the mating assay, the geometric mean of the replicates in which the pair was seen; lower is stronger.
Where no diploid with the target was found in any replicate, the entry reads "nd": below detection, most likely a poor binder, though not proof of it.
Parent in this assay: reference entry 72 nM, copy in this library 7.5 nM.
As a blank, each scFv also met three strains without target: over library AAYL51, 21% of these pairings were detected, typically at 34 µM and seldom below 1.8 µM.

| changes | Kd (apparent) | detected |
|---|---|---|
| V99R G100M Y105V | nd | 0/3 |
| F29P G59N | nd | 0/3 |
| V64T K65M | 1.4 µM | 3/3 |
| K65T V99M G102N | nd | 0/3 |
| Y32T Y60G G103N | 46 µM | 2/3 |
| A61I R101W G104S | 12 µM | 1/3 |
| F27T T28F | 80 nM | 3/3 |
| K65W Y108R | 23 nM | 3/3 |
| K65E R101N | nd | 0/3 |
| G56Y G59C A61H | 93 µM | 1/3 |
| G26Q I51C S52W | nd | 0/3 |
| H35L S57W Y108A | nd | 0/3 |
| T28H Y32K G50W | 110 µM | 1/3 |
| A33P G59V S63I | nd | 0/3 |
| F27S N54M F106I | nd | 0/3 |
| F29Q A33L H35P | 720 nM | 1/3 |
| V64T R101I G104K | 16 µM | 1/3 |
| G100S D107H | 130 µM | 2/3 |
| T28M G59N Y108C | 420 µM | 1/3 |
| S57A K65M | 130 nM | 3/3 |
| A33E W53N V64P | 120 µM | 1/3 |
| M34C S52H G102C | nd | 0/3 |
| D62I G100K Y105A | nd | 0/3 |
| G100N Y105P D107N | 3.5 µM | 1/3 |
| V99G Y105F Y108H | 410 nM | 3/3 |
| N54Y G102T G103Y | nd | 0/3 |
| D31R R101H G103H | 5.6 nM | 3/3 |
| K65T G102I Y105W | 20 nM | 3/3 |
| T28C S57E R101P | nd | 0/3 |
| D30H A33Q D107Q | nd | 0/3 |
| A33G G100Q G103R | 170 pM | 3/3 |
| D31C M34D A61D | nd | 0/3 |
| G50V I58M V99T | 71 µM | 1/3 |
| S63M R101I D107G | 7.2 µM | 1/3 |
| M34V G100F R101L | 2.9 µM | 2/3 |
| F29H Y32K G104T | nd | 0/3 |
| G26M S52T F106Q | 2.4 µM | 1/3 |
| M34N N54D | 9.2 µM | 2/3 |
| I51C A61Q Y108E | 89 µM | 2/3 |
| G103S Y105N D107M | nd | 0/3 |
| Y32P N54P G100E | nd | 0/3 |
| S52D V64K Y105M | 220 µM | 1/3 |
| T28F S55Q S63V | nd | 0/3 |
| Y32F W53L G56R | 100 nM | 3/3 |
| N54V A61M V99C | 4.6 µM | 1/3 |
| D31G G50C G103D | 6.0 µM | 1/3 |
| F29N G50I S63G | 33 µM | 1/3 |
| F27E M34V S63P | 420 µM | 1/3 |
| T28R M34T S52H | nd | 0/3 |
| G26D R101E | 110 µM | 1/3 |
| D30A D62P R101N | 120 nM | 3/3 |
| Y32Q G56W G104Q | nd | 0/3 |
| G56S V99S G102P | nd | 0/3 |
| D31Q I51Q Y108I | 25 µM | 2/3 |
| S57V G59A F106S | 15 µM | 3/3 |
| I58C D62K | 430 µM | 2/3 |
| F27D S55D G102H | 2.9 µM | 2/3 |
| Y32G M34D D62S | 110 µM | 3/3 |
| F27R G100N D107L | nd | 0/3 |
| W53Y G56E D107A | 9.0 nM | 3/3 |
| G26A Y108F | nd | 0/3 |
| F27R Y32Q Y108I | nd | 0/3 |
| I51G N54R | nd | 0/3 |
| F29T M34Q D107W | nd | 0/3 |

Excerpt, the final 9 entries:

changes	Kd (apparent)	detected
I58C D62K	430 µM	2/3
F27D S55D G102H	2.9 µM	2/3
Y32G M34D D62S	110 µM	3/3
F27R G100N D107L	nd	0/3
W53Y G56E D107A	9.0 nM	3/3
G26A Y108F	nd	0/3
F27R Y32Q Y108I	nd	0/3
I51G N54R	nd	0/3
F29T M34Q D107W	nd	0/3

Reference: Engelhart et al. 2022, doi:10.1038/s41597-022-01779-4. File: FLAb, binding data.